## Measured affinities in a library of Ab-14 light chain variants

Target peptide (SARS-CoV-2 spike, HR2 region): PDVDLGDISGINAS

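The parent was found by panning a naive human phage display library on the peptide. The variants were designed computationally from a first round of random CDR variants and then made and measured. Their group label is 14L_GP_Gen (GP: Gaussian process model; Gen: genetic algorithm; a sequence that several methods proposed may carry one label only). In AlphaSeq, yeast of one mating type display the scFv and yeast of the other type display the target. After mating in shaken culture at 30 °C for 16 h, diploids were selected and their barcode pairs sequenced. The ratio of observed to expected reads was calibrated, replicate by replicate, on BCL2-family standards whose Kd was known from biolayer interferometry. There are six technical replicates.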

Parent scFv Ab-14: VH joined to VL by a 15-residue (Gly4Ser)3 linker. Changes lie in the light chain CDRs alone.
VH: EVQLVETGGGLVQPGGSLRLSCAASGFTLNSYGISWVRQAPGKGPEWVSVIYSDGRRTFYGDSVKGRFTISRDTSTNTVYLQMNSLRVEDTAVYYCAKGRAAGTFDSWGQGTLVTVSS
VL: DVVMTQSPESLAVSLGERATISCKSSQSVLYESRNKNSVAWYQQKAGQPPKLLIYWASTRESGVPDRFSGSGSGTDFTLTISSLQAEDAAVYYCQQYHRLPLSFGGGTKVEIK

Variants are written as CDR1, CDR2 and CDR3 of the light chain (limits as in the source). Parent: KSSQSVLYESRNKNSVA, WASTRES, QQYHRLPLS. Affinities are written as log10 Kd with Kd in nM; a lower number is a better binder. Replicates are averaged; those with no signal do not enter the mean. A pair that was not seen in that replicate is written "nd"; this usually means weak binding, but a binder can also be missed. The range of this assay differs from that of the first round, and the authors advise against merging the two. Of ten entries with the parent sequence, four were seen in most replicates (averages 0.34 to 2.37), three in one and three in none, so single entries are noisy. Empty control strains, which show no peptide, gave a signal in 4% of pairings with all light chain designs; the median was 2.64 and 95% of these signals were weaker than 1.59. No background was subtracted. For each scFv, signals with the empty controls are counted beside the result, with their mean in brackets. In the paper, a design with two or fewer of six values counts as a poor binder.

{"CDR-L1": "KVSESELYESRNKNSVA", "CDR-L2": "NASTRES", "CDR-L3": "QQYHRLPLS", "replicates, log10 nM": "0.16 -0.07 -0.21 -0.21 -0.27 0.12", "mean log10 Kd (nM)": "-0.08", "empty controls": "2/18 (2.31)"}
{"CDR-L1": "KLQQSWLYESRNKNSVA", "CDR-L2": "QASTRES", "CDR-L3": "QQYHRLPLS", "replicates, log10 nM": "-0.06 -0.12 -0.05 -0.17 -0.27 0.11", "mean log10 Kd (nM)": "-0.09", "empty controls": "0/18"}
{"CDR-L1": "KLSQSWLYESRNKNSVA", "CDR-L2": "NASTRES", "CDR-L3": "QQYHRLPLM", "replicates, log10 nM": "-0.35 -0.38 -0.32 -0.63 -0.33 -0.53", "mean log10 Kd (nM)": "-0.42", "empty controls": "0/18"}
{"CDR-L1": "KLSESVLYESRNKNNVA", "CDR-L2": "NASTRES", "CDR-L3": "QQYHRLPLS", "replicates, log10 nM": "-0.42 -0.56 -0.52 -0.79 -0.80 -0.52", "mean log10 Kd (nM)": "-0.60", "empty controls": "3/18 (3.27)"}
{"CDR-L1": "KLSQSELYESRNSNSVA", "CDR-L2": "EASTRES", "CDR-L3": "QQYHRLPLS", "replicates, log10 nM": "0.07 -0.11 -0.10 -0.01 -0.11 0.09", "mean log10 Kd (nM)": "-0.03", "empty controls": "1/18 (2.95)"}
{"CDR-L1": "KLMQSELYESRNKNSVA", "CDR-L2": "NASYRES", "CDR-L3": "QQYHRLPLS", "replicates, log10 nM": "-0.32 -0.18 -0.44 -0.40 -0.49 -0.16", "mean log10 Kd (nM)": "-0.33", "empty controls": "0/18"}
{"CDR-L1": "KLSQSVLMESRNKNSVA", "CDR-L2": "DASTRES", "CDR-L3": "QQYHRLPLS", "replicates, log10 nM": "-0.05 -0.37 -0.14 -0.41 -0.30 -0.24", "mean log10 Kd (nM)": "-0.25", "empty controls": "0/18"}
{"CDR-L1": "KLSQSVLYESRNKNSVA", "CDR-L2": "NANTRMS", "CDR-L3": "QQYHRLPLS", "replicates, log10 nM": "-0.33 -0.47 -0.41 -0.70 -0.23 -0.39", "mean log10 Kd (nM)": "-0.42", "empty controls": "0/18"}
{"CDR-L1": "KLSQSVDYESRNKNNVA", "CDR-L2": "NASTRES", "CDR-L3": "QQYHRLPLS", "replicates, log10 nM": "-0.35 -0.53 -0.66 -0.75 -0.46 -0.47", "mean log10 Kd (nM)": "-0.54", "empty controls": "2/18 (2.69)"}
{"CDR-L1": "KFSQSVLYESRNKNSVA", "CDR-L2": "NASQRCS", "CDR-L3": "QQYHRLPLS", "replicates, log10 nM": "0.40 -0.13 -0.05 -0.09 -0.06 0.07", "mean log10 Kd (nM)": "0.02", "empty controls": "1/18 (2.36)"}
{"CDR-L1": "KLPQSVLYESRNKNAVA", "CDR-L2": "GASTRES", "CDR-L3": "QQYHRLPLS", "replicates, log10 nM": "-0.29 -0.33 -0.49 -0.50 -0.52 -0.24", "mean log10 Kd (nM)": "-0.40", "empty controls": "2/18 (2.87)"}
{"CDR-L1": "KVQQSFLYESRNKNSVA", "CDR-L2": "DASTRES", "CDR-L3": "QQYHRLPLS", "replicates, log10 nM": "0.09 -0.05 -0.18 -0.30 0.16 0.03", "mean log10 Kd (nM)": "-0.04", "empty controls": "2/18 (2.21)"}
{"CDR-L1": "KLSQSVLYESRNPNSVA", "CDR-L2": "GASTRES", "CDR-L3": "QQYHRLPLS", "replicates, log10 nM": "0.08 -0.07 -0.18 0.02 -0.12 0.20", "mean log10 Kd (nM)": "-0.01", "empty controls": "1/18 (4.41)"}
{"CDR-L1": "KVSGSVLYESRNKNSVA", "CDR-L2": "DASTRES", "CDR-L3": "QQYHRLPLS", "replicates, log10 nM": "-0.14 -0.19 -0.18 -0.30 -0.06 0.00", "mean log10 Kd (nM)": "-0.14", "empty controls": "1/18 (3.69)"}
{"CDR-L1": "KLQQSWGYESRNKNSVA", "CDR-L2": "NASQRES", "CDR-L3": "QQYHRLPLS", "replicates, log10 nM": "-0.13 -0.14 -0.20 -0.23 -0.08 0.11", "mean log10 Kd (nM)": "-0.11", "empty controls": "3/18 (3.40)"}
{"CDR-L1": "KLSQSVLYESRMPNSVA", "CDR-L2": "NASTRES", "CDR-L3": "QQYHRLPLS", "replicates, log10 nM": "-0.26 -0.36 -0.45 -0.48 -0.52 -0.26", "mean log10 Kd (nM)": "-0.39", "empty controls": "1/18 (3.63)"}
{"CDR-L1": "KLSQSMLYESRNKNNVA", "CDR-L2": "HASTRES", "CDR-L3": "QQYHRLPLS", "replicates, log10 nM": "-0.26 -0.50 -0.49 -0.49 -0.65 -0.55", "mean log10 Kd (nM)": "-0.49", "empty controls": "1/18 (1.90)"}
{"CDR-L1": "KLPQSELYESRNKNSVA", "CDR-L2": "NASKRES", "CDR-L3": "QQYHRLPLS", "replicates, log10 nM": "-0.16 -0.25 -0.42 -0.51 -0.38 -0.42", "mean log10 Kd (nM)": "-0.36", "empty controls": "2/18 (2.26)"}
{"CDR-L1": "KLSQSVWYESRNKNSVA", "CDR-L2": "NASTRCS", "CDR-L3": "QQYHRLPLS", "replicates, log10 nM": "0.09 0.20 0.16 0.18 0.02 0.38", "mean log10 Kd (nM)": "0.17", "empty controls": "1/18 (2.79)"}
{"CDR-L1": "KLPQSELYESRNKNSVA", "CDR-L2": "NASTRMS", "CDR-L3": "QQYHRLPLS", "replicates, log10 nM": "0.02 -0.52 -0.32 -0.27 -0.40 0.06", "mean log10 Kd (nM)": "-0.24", "empty controls": "0/18"}
{"CDR-L1": "KFSQSWLYESRNKNSVA", "CDR-L2": "NASQRES", "CDR-L3": "QQYHRLPLS", "replicates, log10 nM": "0.31 0.42 0.39 0.17 0.43 0.53", "mean log10 Kd (nM)": "0.38", "empty controls": "0/18"}
{"CDR-L1": "KLQQSVLYESRNKNSVA", "CDR-L2": "SASTRES", "CDR-L3": "QQYHRLPLS", "replicates, log10 nM": "0.46 0.35 0.01 0.04 0.12 0.26", "mean log10 Kd (nM)": "0.21", "empty controls": "1/18 (4.34)"}
{"CDR-L1": "KLSQSVWYESRNKNSVA", "CDR-L2": "QASTRES", "CDR-L3": "QQYHRLPLS", "replicates, log10 nM": "-0.28 -0.42 -0.58 -0.44 -0.49 -0.29", "mean log10 Kd (nM)": "-0.42", "empty controls": "0/18"}
{"CDR-L1": "KLPQSVPYESRNKNSVA", "CDR-L2": "QASTRES", "CDR-L3": "QQYHRLPLS", "replicates, log10 nM": "-0.15 0.08 -0.54 -0.37 0.00 -0.06", "mean log10 Kd (nM)": "-0.17", "empty controls": "0/18"}
{"CDR-L1": "KLSQSVLYESRNKNSVA", "CDR-L2": "EASTREM", "CDR-L3": "QQYHRLPLS", "replicates, log10 nM": "-0.18 -0.29 -0.43 -0.40 -0.29 -0.07", "mean log10 Kd (nM)": "-0.28", "empty controls": "2/18 (2.95)"}
{"CDR-L1": "KLEQSNLYESRNKNSVA", "CDR-L2": "NASQRLS", "CDR-L3": "QQYHRLPLS", "replicates, log10 nM": "0.19 -0.04 -0.22 -0.12 -0.11 0.05", "mean log10 Kd (nM)": "-0.04", "empty controls": "0/18"}
{"CDR-L1": "KLPQSVLYESRNKNSVA", "CDR-L2": "NASTRES", "CDR-L3": "QDYHRLPLS", "replicates, log10 nM": "0.09 0.20 0.05 -0.05 -0.27 0.09", "mean log10 Kd (nM)": "0.02", "empty controls": "0/18"}
{"CDR-L1": "KVSQSVLYESRNKNAVA", "CDR-L2": "AASTRES", "CDR-L3": "QQYHRLPLS", "replicates, log10 nM": "nd nd -0.81 -0.74 -0.82 -0.71", "mean log10 Kd (nM)": "-0.77", "empty controls": "0/18"}
{"CDR-L1": "KLSQSMLYESRNKNSVA", "CDR-L2": "NASTREW", "CDR-L3": "QQYHRLPLS", "replicates, log10 nM": "-0.03 -0.14 -0.08 -0.28 -0.16 0.04", "mean log10 Kd (nM)": "-0.11", "empty controls": "0/18"}

Picked from the list: the 5 lowest averages where every replicate gave a value.

{"CDR-L1": "KLSESVLYESRNKNNVA", "CDR-L2": "NASTRES", "CDR-L3": "QQYHRLPLS", "replicates, log10 nM": "-0.42 -0.56 -0.52 -0.79 -0.80 -0.52", "mean log10 Kd (nM)": "-0.60", "empty controls": "3/18 (3.27)"}
{"CDR-L1": "KLSQSVDYESRNKNNVA", "CDR-L2": "NASTRES", "CDR-L3": "QQYHRLPLS", "replicates, log10 nM": "-0.35 -0.53 -0.66 -0.75 -0.46 -0.47", "mean log10 Kd (nM)": "-0.54", "empty controls": "2/18 (2.69)"}
{"CDR-L1": "KLSQSMLYESRNKNNVA", "CDR-L2": "HASTRES", "CDR-L3": "QQYHRLPLS", "replicates, log10 nM": "-0.26 -0.50 -0.49 -0.49 -0.65 -0.55", "mean log10 Kd (nM)": "-0.49", "empty controls": "1/18 (1.90)"}
{"CDR-L1": "KLSQSWLYESRNKNSVA", "CDR-L2": "NASTRES", "CDR-L3": "QQYHRLPLM", "replicates, log10 nM": "-0.35 -0.38 -0.32 -0.63 -0.33 -0.53", "mean log10 Kd (nM)": "-0.42", "empty controls": "0/18"}
{"CDR-L1": "KLSQSVLYESRNKNSVA", "CDR-L2": "NANTRMS", "CDR-L3": "QQYHRLPLS", "replicates, log10 nM": "-0.33 -0.47 -0.41 -0.70 -0.23 -0.39", "mean log10 Kd (nM)": "-0.42", "empty controls": "0/18"}

Source: Li et al. 2023 (doi:10.1038/s41467-023-39022-2), MIT Lincoln Laboratory and A-Alpha Bio; data file from the FLAb repository.